From US20260200942A1, “PARP7 INHIBITORS AND THEIR APPLICATIONS” (CHONGQING PHARSCIN INNOBIO CO., LTD., priority 2023, published 2026) come the findings set out here.

Sequences of proteins named here, by UniProt entry; tags and fusion partners are left off.
UniProt Q7Z3E1, whole entry: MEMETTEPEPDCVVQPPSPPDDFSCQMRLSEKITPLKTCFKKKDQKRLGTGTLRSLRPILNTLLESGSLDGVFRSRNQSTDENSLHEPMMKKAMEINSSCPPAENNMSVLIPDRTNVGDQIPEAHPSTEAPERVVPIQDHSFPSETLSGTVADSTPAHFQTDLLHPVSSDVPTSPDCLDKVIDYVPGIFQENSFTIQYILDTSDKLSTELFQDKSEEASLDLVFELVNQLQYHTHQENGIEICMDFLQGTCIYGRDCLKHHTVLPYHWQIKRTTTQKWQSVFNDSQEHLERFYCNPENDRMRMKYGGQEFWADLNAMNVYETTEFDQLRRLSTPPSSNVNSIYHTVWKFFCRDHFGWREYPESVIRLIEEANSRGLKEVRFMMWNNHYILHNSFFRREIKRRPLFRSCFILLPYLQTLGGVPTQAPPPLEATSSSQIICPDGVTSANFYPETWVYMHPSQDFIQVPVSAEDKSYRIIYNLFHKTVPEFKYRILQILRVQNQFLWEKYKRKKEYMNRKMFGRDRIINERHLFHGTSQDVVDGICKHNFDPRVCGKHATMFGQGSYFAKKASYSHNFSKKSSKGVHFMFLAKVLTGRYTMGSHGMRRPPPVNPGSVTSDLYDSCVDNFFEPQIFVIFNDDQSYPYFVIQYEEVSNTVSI

The target of the assay is PARP7 (Homo sapiens, UniProt Q7Z3E1). Put plainly: PARP7 inhibitory activity assay (histone-coated 384-well plate, chemiluminescence). The following applies: read-out: PARP7 IC50.

As usually defined, the IC50 is the concentration that gives 50% inhibition. As to `CC(c1cc(C(F)(F)F)c(=O)[nH]n1)N1CC(C(=O)N2CCN(c3ncc(C(F)(F)F)cn3)CC2)C1` (centres unmarked), the IC50 is 10 to 100 nM.

Consider `CC(NC1CC(C(=O)N2CCN(c3ncc(C(F)(F)F)cn3)CC2)C1)c1cc(C(F)(F)F)c(=O)[nH]n1` (centres unmarked), for which the IC50 was in the range of 10 to 100 nM.
